# Experiments:
# kappa opioid receptor [1] = biological target: T1, kappa opioid receptor (Homo sapiens (Human), UniProt P41145); assay: In vitro kappa-opioid receptor [35S]GTPγS functional assay; format: biochemical; conditions: mean ± SEM
# μ-opioid receptor [2] = biological target: T2, μ-opioid receptor (Homo sapiens (Human), UniProt P35372); assay: In vitro mu-opioid receptor binding assay ([3H]-diprenorphine displacement); conditions: read-out: Ki [Average ± Std Deviation] Opioid Receptor Mu
# delta opioid receptor = delta opioid receptor (Homo sapiens (Human), UniProt P41143); assay: In vitro delta-opioid receptor binding assay ([3H]-Naltrindole displacement)
# μ-opioid receptor [3] = biological target: T2, μ-opioid receptor; assay: In vitro mu-opioid receptor [35S]GTPγS functional assay; conditions: mean ± SEM
# [4] = biological target: T3, human opioid receptor-like (ORL-1) (Homo sapiens (Human), UniProt P41146); assay: In vitro ORL-1 receptor binding assay ([3H]-nociceptin displacement)
# [5] = biological target: T3, human opioid receptor-like (ORL-1); assay: In vitro ORL-1 receptor [35S]GTPγS functional assay; format: biochemical; conditions: mean ± SEM
# kappa opioid receptor [6] = biological target: T1, kappa opioid receptor; assay: In vitro kappa-opioid receptor binding assay ([3H]-U69,593 displacement)
smiles,measurement,setting,value
O=C(N[C@H](C(=O)O)c1ccccc1)c1nc2ccccc2n([C@H]2C[C@H]3CC[C@@H](C2)N3C2CCCCCCC2)c1=O,GTPγS Opioid Receptor Kappa Emax,kappa opioid receptor [1],31.3 ± 3.8%
same,Ki,μ-opioid receptor [2],400 nM
same,Ki,delta opioid receptor,2570 nM
same,GTPγS Opioid Receptor Mu Emax,μ-opioid receptor [3],14.0%
same,Ki,[4],24.6 nM
same,GTPγS ORL-1 Emax,[5],74.7 ± 1.8%
same,Ki,kappa opioid receptor [6],49.3 nM
NC(=O)CNc1nc2ccccc2n([C@H]2C[C@H]3CC[C@@H](C2)N3C2CCCCCCC2)c1=O,GTPγS Opioid Receptor Kappa Emax,kappa opioid receptor [1],9.3 ± 1.4%
same,Ki,μ-opioid receptor [2],459 nM
same,Ki,delta opioid receptor,38300 nM
same,GTPγS Opioid Receptor Mu Emax,μ-opioid receptor [3],9.7 ± 0.3%
same,Ki,[4],6.42 nM
same,GTPγS ORL-1 Emax,[5],104.7 ± 3.8%
same,Ki,kappa opioid receptor [6],253 nM

# Source: patent publication US8846929B2, “Substituted-quinoxaline-type piperidine compounds and the uses thereof” (priority 2007, dated 2014)
